Tested on: Huh-7 HCV replicon cells
Experiment: CC50 assay in the anti-HCV replicon assay (CellTiter-Glo)
Type: cell-based, human
Settings: 3 days incubation, CellTiter-Glo luminescence
Method: The anti HCV activity of the quinazoline derivatives of this invention was tested in a human hepatoma Huh-7 cell line harbouring a HCV replicon. The assay comprised the following steps:
Step 1: compound preparation and serial dilution • 1. for water soluble quinazoline derivatives, a volume of 500 μL of solution in cell media (DMEM, 10% FBS, P/S, L-Glutamine) was prepared with a concentration being twice the concentration of the starting final serial dilution concentration. A volume of 150 μL of the solution was added to the pre-specified wells in column 1 of a 96-well cell culture plate (PerkinElmer, white plate, cat. #6005181, for EC50 assay; black plate, cat. #6005182 for CC50 assay). The rest of the plate, columns 2-12, was filled with 100 μL of cell media. […]
Step 3: detection: • a) for the EC50 assay, the media in a 96-well cell culture plate was aspirated with a Biotek EL405 plate-washer. […] The plate was incubated for 30 minutes at room temperature before the luminescence signal was measured with a TopCount plate-reader. • b) for the CC50 assay, a volume of 100 μL of pre-mixed CellTiter-Glo (Promega, cat.# G7572) solution is added directly to the cell culture in each well of the plate and the luminescence signal is measured with a TopCount plate-reader after 10 minutes of incubation at room temperature. […]

For “4-(4-(2-methmethoxy)-quinazolin-6-yl)-N-methyl-benzamide [Example 246]”, the CC50 was > 20 µM.

From patent US8673929B2, “4,6-di- and 2,4,6-trisubstituted quinazoline derivatives and pharmaceutical compositions useful for treating viral infections” (priority 2006, dated 2014)
